Antibody variant affinities, Ab-91 heavy chain, assay 2

Target: peptide PDVDLGDISGINAS, taken from heptad repeat 2 (HR2) of SARS-CoV-2 spike.

Ab-91 is the parent antibody, in scFv form: VL, then the linker GGGGSGGGGSGGGGS, then VH. The light chain is unchanged in all variants.
VL: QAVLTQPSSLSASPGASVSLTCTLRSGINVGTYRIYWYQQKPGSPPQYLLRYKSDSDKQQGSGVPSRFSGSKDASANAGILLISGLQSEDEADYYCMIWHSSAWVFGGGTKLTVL
VH: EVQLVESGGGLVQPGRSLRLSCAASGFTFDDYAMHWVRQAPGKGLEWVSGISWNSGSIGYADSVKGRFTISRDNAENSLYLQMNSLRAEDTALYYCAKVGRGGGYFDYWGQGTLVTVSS

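The parent was found by panning a naive human phage display library on the peptide. In library AAYL51, one, two or three CDR residues were substituted; doubles and triples were drawn at random. In AlphaSeq, yeast of one mating type display the scFv and yeast of the other type display the target. After mating in shaken culture at 30 °C for 16 h, diploids were selected and their barcode pairs sequenced. Read counts were normalised to the haploid input and turned into Kd by a linear fit to BCL2-family pairs of known affinity, for each replicate. The assay was run in three technical replicates.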

Each variant is given by its three heavy chain CDRs, as the data file delimits them; those of the parent are GFTFDDYAMH, GISWNSGSIGYADSVK, VGRGGGYFDY.
This list gathers variants with a substitution at Y32 (VH, numbered from residue 1).
Values are log10 of the apparent Kd in nM; lower means stronger binding.
Replicates are averaged; those with no signal do not enter the mean.
"nd" means that the variant was in the library but no mating with the target was seen in that replicate; the authors take this as a sign of poor binding, and no number exists.

The variant GFTFMDCAMH | GISWNSGSIGYADSVK | YGRGGGYFDY showed 3.14, 2.63, 1.24 (mean 2.34).
The variant GFTFDDAAMH | GISWNSGSIGYADSVK | VGRGHGYFDM showed 2.03, 2.08, 3.13 (mean 2.41).
The variant GFTFDDMAMH | GISWLSGSIGVADSVK | VGRGGGYFDY showed nd, 4.24, nd.
The variant GFTFDDHAMH | GISWESGSIGYADSVK | PGRGGGYFDY showed nd, nd, nd.
The variant GFTFDDIAMH | GISWNRGSIGYADSVK | VGRGGGYFDY showed nd, 5.58, nd.
The variant GFTFDDRAMH | GIMWNSGSIGYADSVK | VGRVGGYFDY showed nd, nd, nd.
The variant GFTFDDLAMH | GISMNSGSIGYADSVP | VGRGGGYFDY showed nd, nd, nd.
The variant GFTFDDIAMH | GISWNSKSIGYADSVK | VGRGGIYFDY showed 4.66, 3.81, nd (mean 4.24).
The variant GFTFDDDAMH | GISWNEGSIGYADSVK | VGRGTGYFDY showed 3.64, 5.81, nd (mean 4.73).
The variant GFTFDDKAMH | GISWNSGSIGYADSVK | MGRGGGYFDS showed nd, nd, nd.
The variant GGTFDDAAMH | GICWNSGSIGYADSVK | VGRGGGYFDY showed 4.21, nd, nd.
The variant SFTFDDVAMH | GISWNSGSIGYAFSVK | VGRGGGYFDY showed 5.31, 4.59, nd (mean 4.95).
The variant GFTFDDIAMH | GISWNSGSIGYADSVK | VGRGGSYFDY showed 4.27, 5.65, 5.55 (mean 5.16).
The variant GFTFDHAAMH | GISWNSGSIGYADMVK | VGRGGGYFDY showed 1.12, 1.37, 1.04 (mean 1.18).
The variant GFTFDDWAMH | VITWNSGSIGYADSVK | VGRGGGYFDY showed nd, 4.61, nd.
The variant GFTFIDMAMH | GISWNSGSIGYADSVK | VGNGGGYFDY showed 3.18, nd, nd.
The variant GFTFDDRAMH | GISWNSGSIGEADSVK | VGRGGGYFDY showed nd, nd, nd.
The variant GETFDDIAMH | GISWNSGSPGYADSVK | VGRGGGYFDY showed 3.55, nd, 4.18 (mean 3.86).
The variant GFTSDNKAMH | GISWNSGSIGYADSVK | VGRGGGYFDY showed 2.38, 2.55, 2.58 (mean 2.50).
The variant GFGFDDMAMH | GISWNSGSIGYNDSVK | VGRGGGYFDY showed 4.44, 4.71, nd (mean 4.57).
The variant GFTFDDAAMH | GISWNSGCIGYADSVK | WGRGGGYFDY showed nd, nd, nd.
The variant GFTFDDWAMN | GISWNSGSIGYADSVK | VGRCGGYFDY showed 4.14, nd, nd.
The variant GFTFDDMAMD | GISWNSGSIGYADSVK | VGRGGGYFDY showed nd, nd, nd.
The variant GFTFDDNAMH | GISWNSGSIGYADSVK | VGRGGGYDDH showed nd, 3.31, nd.
The variant GFTFDDHAMH | GISWGSGSIGYADSVS | VGRGGGYFDY showed 4.01, 4.24, nd (mean 4.13).
The variant GFTFDDNAMH | TISWNSGSIGYADSVK | VDRGGGYFDY showed nd, nd, nd.
The variant GFMFDDCAMH | GISWNSGSIGYATSVK | VGRGGGYFDY showed nd, 3.64, 3.35 (mean 3.49).
The variant GPTFDDEAMH | GISWNSGSIGYACSVK | VGRGGGYFDY showed nd, nd, nd.
The variant GFWFDDQAMH | GISWNSQSIGYADSVK | VGRGGGYFDY showed nd, nd, nd.
The variant GFTFDDNAMH | MISWNSGSIGSADSVK | VGRGGGYFDY showed nd, nd, nd.
The variant GFTFDDGAMH | GISWNSGSIGYADSVK | VGLGGGYFDY showed nd, nd, nd.
The variant GFTFDDKAMH | GISWNSGSIGYADSVK | VGRGHGYFTY showed 5.28, 5.17, nd (mean 5.23).
The variant GFTFDDAAMH | GISWNSGSIGYADSVI | VGRGGGYFDY showed nd, nd, nd.
The variant GFTFDDRAMH | GISWNSGSIGYADSVQ | VGRGGFYFDY showed nd, nd, nd.
The variant GFTFDDLAMH | GASWNSGSIKYADSVK | VGRGGGYFDY showed nd, nd, nd.
The variant GFTFDRSAMH | GISWNSGSIGYADSVK | VGRGGGYFDY showed nd, nd, nd.
The variant GFTFDDTAMH | GISWNSGSIGYADSVK | VDRGGGFFDY showed 6.33, 4.65, 6.20 (mean 5.73).
The variant GFTFDDDAQH | GISWNSGSIGYADSVK | VIRGGGYFDY showed nd, 2.62, nd.
The variant WFTFDDTAMH | GISWNSGEIGYADSVK | VGRGGGYFDY showed 3.77, nd, nd.
The variant GFTFDDSAMH | GISWNSGSIRYASSVK | VGRGGGYFDY showed 5.10, nd, nd.
The variant GFTFDDCAMH | GIVWNSGSIGYADRVK | VGRGGGYFDY showed 4.11, 4.01, nd (mean 4.06).
The variant GFTFRDWAMH | GISWNSGSIGYADSVK | VGRGDGYFDY showed 4.44, nd, nd.
The variant GFTFDDTLMH | FISWNSGSIGYADSVK | VGRGGGYFDY showed nd, nd, nd.
The variant GFTFDDKAMH | GISWNSGSIGYADSVK | MGRIGGYFDY showed nd, nd, nd.
The variant GFTFDDRAMH | GIGWNSYSIGYADSVK | VGRGGGYFDY showed nd, 5.27, nd.
The variant GFTFDDPKMH | GISWNSGSIVYADSVK | VGRGGGYFDY showed nd, nd, nd.
The variant GFTFDDAAMH | GISWNSGSIGYADSVK | VGRGGGYPTY showed nd, 4.93, nd.
The variant RFTFDDRAMH | GISWNSGSISYADSVK | VGRGGGYFDY showed nd, nd, nd.
The variant GFTFDDRAMH | GISANSGSIGYADSVK | VGRGGGYFDY showed 4.91, 5.63, nd (mean 5.27).
The variant GFTFDDEAMH | GISWNSGVIGYADSVK | VGEGGGYFDY showed nd, nd, nd.
The variant GFTFDDEAMH | GISSNSGSIGYADSVK | VGRGGNYFDY showed nd, 5.19, nd.

Background: pairings of library AAYL51 with three empty control strains gave a value in 21% of cases (median 4.54, 5th percentile 3.26). Values in that range, when seen in few replicates, are hard to tell from nonspecific mating.
For reference, the parent read 1.86 as the reference entry and 0.88 as a member of this library.

Source: Engelhart et al. 2022 (doi:10.1038/s41597-022-01779-4), MIT Lincoln Laboratory and A-Alpha Bio; data file from the FLAb repository.